For this test, the target named is Nociceptin receptor (Homo sapiens) (UniProt P41146). The test can be described thus: Partial agonist activity at human nociceptin receptor expressed in CHO cells after 60 mins by [35S]GTPgammaS binding assay.

Amino acid sequences for entries named in this document (tags omitted).
UniProt P41146, whole entry: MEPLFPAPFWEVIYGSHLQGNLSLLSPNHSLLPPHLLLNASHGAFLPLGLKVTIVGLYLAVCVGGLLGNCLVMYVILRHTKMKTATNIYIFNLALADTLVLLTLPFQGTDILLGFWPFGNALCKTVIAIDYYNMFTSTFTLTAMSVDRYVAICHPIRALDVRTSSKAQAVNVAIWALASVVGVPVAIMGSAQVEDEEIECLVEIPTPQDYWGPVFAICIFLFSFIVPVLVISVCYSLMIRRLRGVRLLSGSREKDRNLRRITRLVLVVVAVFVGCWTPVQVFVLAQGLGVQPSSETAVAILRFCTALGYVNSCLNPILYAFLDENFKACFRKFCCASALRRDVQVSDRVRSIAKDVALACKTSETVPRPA

For the compound `O=C1Cc2ccccc2N1C1CCN(Cc2ccccc2)CC1`, the %max amounted to 18%.

The values above are taken from ChEMBL document CHEMBL3774335, “Tactical Approaches to Interconverting GPCR Agonists and Antagonists” (J Med Chem, 2016).
